Results taken from patent US4992418A, “Superactive human insulin analogue-[10-Aspartic Acid-B]Human Insulin” (Mount Sinai School of Medicine, priority 1987, dated 1991).

Details: reversed-phase HPLC, two chromatographic conditions

Polarity compared with natural insulin: more apolar molecule
Substance: [10-Aspartic acid-B] human insulin
